Here are results for one molecule from patent US4956367A, “2-amino-4-morpholino-6-propyl-1,3,5-triazines” (U C B S.A., priority 1988, dated 1990).

The subject of series [1] is amnesia induced by scopolamine. The series is described as follows: Multiple-trial passive avoidance: mnemic retention, amnesia induced by scopolamine. To be noted: rats, active dose against the amnesing effect of scopolamine. It counts as in vivo, male Sprague-Dawley rats. The procedure: 4. Multiple-trial passive avoidance. The compounds of the present invention have been studied with the aim of
Columns 3 and 4 show the results obtained in the test used to evaluate the learning. The figures indicate the average number of trials needed for a control animal (group 1) or an animal treated (group 2) with the compound to learn to remain on the rubber mat for 180 seconds in order to avoid the electric shock. The results were analyzed by the Student test.

Another series can be described thus: Toxicity (Irwin's test). The note with it: mice, intraperitoneal. It counts as in vivo. The method, then: The toxicity of the c:xspounds of the invention has been determined on male NMRI mice by means of the Irwin's test (S. IRWIN, Psychopharmacologia,13,(1968),222-257). Progressive doses of the compound to be tested are administered intraperitoneally to groups of three mice until the lethal dose is reached (dose which causes the death of two animals out of three within 48 hours).

For the molecule `CNC(=O)Oc1ccc2c(c1)[C@]1(C)CCN(C)[C@@H]1N2C` [physostigmine, reference compound], the “active dose relative to side effects and toxic dose” value in series [1] was “at a dose which has side effects and is very close to the toxic dose”. Moreover, the “Lethal dose (death of two animals out of three within 48 hours)” value in “Toxicity (Irwin's test)” came to 0.82 mg/kg.
